Molecules are shown by their SMILES.

The experiment relates to SARS-CoV-2 virus (Victoria strain) in VeroE6 cells. It counts as cell-based.

As for `CSCC[C@@H](C#N)NC(=O)[C@@H]1[C@@H]2[C@H](CN1C(=O)[C@@H](NC(=O)C(F)(F)F)C(C)(C)C)C2(C)C`, the “fold more efficient inhibition of SARS-CoV-2 progression in infected VeroE6 cells than alkyne 13” value is on record as around 2 fold.

The record behind these values is paper PMC9924091 (Journal of Medicinal Chemistry, 2023).
